Measured values from patent US12246076B2, “Radiolabeled compounds for in vivo imaging of gastrin-releasing peptide receptor (GRPR) and treatment of GRPR-related disorders” (PROVINCIAL HEALTH SERVICES AUTHORITY, priority 2022, dated 2025).

The chains behind the UniProt entries cited, without tags or fusion partners.
UniProt P30550, whole entry: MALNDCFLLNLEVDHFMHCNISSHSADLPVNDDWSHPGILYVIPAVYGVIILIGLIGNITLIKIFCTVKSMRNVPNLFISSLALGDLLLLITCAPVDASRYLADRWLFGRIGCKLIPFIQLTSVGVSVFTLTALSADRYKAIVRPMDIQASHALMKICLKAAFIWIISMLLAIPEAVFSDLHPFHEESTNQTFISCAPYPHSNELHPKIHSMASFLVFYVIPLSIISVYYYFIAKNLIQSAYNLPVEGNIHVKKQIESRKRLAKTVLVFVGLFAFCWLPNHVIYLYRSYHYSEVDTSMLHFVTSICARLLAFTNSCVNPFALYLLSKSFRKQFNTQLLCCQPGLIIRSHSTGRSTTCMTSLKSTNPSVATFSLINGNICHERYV

Target: GRPR (Homo sapiens, UniProt P30550)
Test: In vitro competition binding assay, displacement of [^125I-Tyr^4]bombesin on GRPR-expressing PC-3 cells
Conditions: read-out: Binding affinities Ki Mean, n = 2-3

## CC(C)C[C@@H](CN1CSC[C@H]1C(N)=O)NC(=O)[C@H](Cc1c[nH]cn1)NC(=O)CN(C)C(=O)[C@@H](NC(=O)[C@H](C)NC(=O)[C@H](Cc1c[nH]c2ccccc12)NC(=O)[C@H](CCC(N)=O)NC(=O)[C@@H](Cc1ccccc1)NC(=O)CN1CCC(NC(=O)CN2CCN(CC(=O)O)CCN(CC(=O)O)CCN(CC(=O)O)CC2)CC1)C(C)(C)C
  Ki: 11 nM

## CC(C)C[C@@H](CN1CSC[C@H]1C(N)=O)NC(=O)[C@H](Cc1c[nH]cn1)NC(=O)CNC(=O)[C@@H](NC(=O)[C@H](C)NC(=O)[C@](C)(Cc1c[nH]c2ccccc12)NC(=O)[C@H](CCC(N)=O)NC(=O)[C@@H](Cc1ccccc1)NC(=O)CN1CCC(NC(=O)CN2CCN(CC(=O)O)CCN(CC(=O)O)CCN(CC(=O)O)CC2)CC1)C(C)(C)C
  Ki: 6.94 nM
